Data: publication PMC10963303 (Pharmacology Research & Perspectives, 2024)

Molecular target: T1, OCT2 (Homo sapiens, UniProt O15244)
T1 sequence (O15244 1-555): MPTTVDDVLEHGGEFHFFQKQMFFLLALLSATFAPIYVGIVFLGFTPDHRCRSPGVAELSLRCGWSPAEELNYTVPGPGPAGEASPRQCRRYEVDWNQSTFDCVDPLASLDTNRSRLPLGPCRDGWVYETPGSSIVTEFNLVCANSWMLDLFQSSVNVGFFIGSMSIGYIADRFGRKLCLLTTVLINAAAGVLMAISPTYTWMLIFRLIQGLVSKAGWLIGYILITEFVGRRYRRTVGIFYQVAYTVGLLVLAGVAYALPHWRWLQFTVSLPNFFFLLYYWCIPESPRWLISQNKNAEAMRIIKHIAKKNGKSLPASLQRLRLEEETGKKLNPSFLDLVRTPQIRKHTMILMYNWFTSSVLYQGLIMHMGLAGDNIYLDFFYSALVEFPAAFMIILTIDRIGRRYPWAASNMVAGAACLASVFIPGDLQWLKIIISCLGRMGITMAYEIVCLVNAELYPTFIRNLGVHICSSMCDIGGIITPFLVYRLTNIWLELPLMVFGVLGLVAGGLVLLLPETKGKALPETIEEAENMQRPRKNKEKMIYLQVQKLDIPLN
Assay: clinical
Conditions: plasma, oral

## CN(C)C(=N)N=C(N)N [metformin]
  Cmax: 1.11 µg/mL
